## Antibody variant affinities, Ab-91 heavy chain, assay 2

Target peptide (SARS-CoV-2 spike, HR2 region): PDVDLGDISGINAS

Parent scFv Ab-91: VL joined to VH by three GGGGS repeats. Changes lie in the heavy chain CDRs alone.
VL: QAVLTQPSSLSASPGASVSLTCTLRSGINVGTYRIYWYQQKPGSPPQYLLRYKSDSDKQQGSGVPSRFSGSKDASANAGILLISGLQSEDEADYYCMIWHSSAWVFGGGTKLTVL
VH: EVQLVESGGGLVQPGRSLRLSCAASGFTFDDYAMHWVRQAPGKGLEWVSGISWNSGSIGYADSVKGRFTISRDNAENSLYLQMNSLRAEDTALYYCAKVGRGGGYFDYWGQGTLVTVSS

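The parent was found by panning a naive human phage display library on the peptide. AAYL51 was designed without a model: most single CDR substitutions and a random sample of double and triple ones. Affinity was read by AlphaSeq, a pooled yeast mating assay with surface-displayed partners. After mating in shaken culture at 30 °C for 16 h, diploids were selected and their barcode pairs sequenced. The ratio of observed to expected reads was calibrated, replicate by replicate, on BCL2-family standards whose Kd was known from biolayer interferometry. There are three technical replicates.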

Each variant is given by its three heavy chain CDRs, as the data file delimits them; those of the parent are GFTFDDYAMH, GISWNSGSIGYADSVK, VGRGGGYFDY.
Affinities are written as log10 Kd with Kd in nM; a lower number is a better binder.
"ND" marks a missing value. The strain was present, yet no cells mated with the target were sequenced in that replicate, which points to weak or no binding.
As a blank, each scFv also met three strains without target: over library AAYL51, 21% of these pairings were detected, typically at 4.54 and seldom below 3.26. For each scFv, signals with the empty controls are counted beside the result, with their mean in brackets.

CDR-H1,CDR-H2,CDR-H3,"log10 Kd, replicates",signal with controls
GFTFDDYAMH,GISWNSASIGYAISVK,VGRGGGYPDY,ND / ND / ND,0 of 9
GFTFDDYGMH,GISWNSGSIGYADSVK,DGRGGGIFDY,5.43 / 4.69 / ND,4 of 9 (4.70)
GFTFDDYAMH,GISWNSGSIGYADSVQ,VGRGGGAFQY,5.20 / 5.04 / 4.97,7 of 9 (4.89)
GFTFDDYAMH,GISWNSGSIGYADSVK,VGRGGGYALY,1.94 / 1.96 / 1.84,4 of 9 (5.22)
GFTFDDYAMH,LISWNSGSIGYADSVK,VGRGDGGFDY,ND / ND / ND,0 of 9
GFTFDDYAMH,GISWNSGSIGMAESVK,VGRGGGYFDC,ND / ND / 4.35,2 of 9 (3.62)
GETFDDYAMH,GISDNSGHIGYADSVK,VGRGGGYFDY,3.86 / 4.14 / ND,2 of 9 (4.75)
PFTFDDYAMH,GISRNCGSIGYADSVK,VGRGGGYFDY,ND / ND / ND,3 of 9 (4.44)
GFTFDDWAMH,GISWNSGSIGYADSVK,VGRGGWYFDV,ND / ND / ND,0 of 9
GFTFDDYHMH,GISWNSGSIGYADSVE,VRRGGGYFDY,ND / 4.19 / ND,3 of 9 (4.58)
GFTFDDYAMH,GISWHSGSIGYADSVK,PGRGGGYFDP,ND / ND / ND,0 of 9
GMTFDDVAMH,GISWNSGSIGYADSVK,VGRAGGYFDY,ND / ND / ND,2 of 9 (2.80)
GFTFDDYAMH,GISWNSWSIGYADSVK,VYRGGGYFDY,2.76 / 2.93 / 2.44,8 of 9 (4.82)
GFTFDDYAMH,GISWNIGSIGYADSVK,VRRGGGYPDY,4.70 / ND / ND,3 of 9 (3.87)
GFTFDDYAMH,GISWNSKSIEYADSVK,VGRGMGYFDY,ND / ND / ND,4 of 9 (4.90)
GFKFDDYAMH,GTSWNSGSIGYADSPK,VGRGGGYFDY,4.82 / 4.96 / ND,3 of 9 (4.32)
GFTFDDYAMT,GISWNSGSIGYADSVK,VGRGGYYFAY,5.20 / ND / ND,4 of 9 (4.69)
GFTFDDYAQH,GISWNSGSIGYADSVK,VGDQGGYFDY,5.29 / 5.30 / 5.70,4 of 9 (4.56)
IFTFDYYAMH,GISQNSGSIGYADSVK,VGRGGGYFDY,ND / ND / ND,2 of 9 (4.18)
GFTFDDYAMH,GISWNSGSIGYADSVK,VGGGYGYFDN,ND / ND / ND,0 of 9
GFTFDDYMMH,GISWYSGSIGYADSVK,VGRGGGYGDY,4.40 / 4.14 / ND,0 of 9
GFTFDDYAMH,GISWNSGSIGYADSVK,SGRGGGYFLY,ND / ND / ND,3 of 9 (4.04)
GFTMDDYAMH,GISWNSGSIGYAPSVK,VGQGGGYFDY,ND / ND / 0.99,0 of 9
GFTFDDMAMH,GISWNSGSIGYADVVK,VGRGGFYFDY,3.96 / 4.58 / 4.55,3 of 9 (4.54)
GFTFDDYCMH,GISWNSGSIDYADSVD,VGRGGGYFDY,ND / ND / ND,0 of 9
GFTFDEYAMH,GISWNSGSIGYADTVK,VGRGGGYFDQ,1.09 / 1.19 / 0.94,3 of 9 (4.53)
GFTFDHYAMH,GISWNSNSIGYAESVK,VGRGGGYFDY,1.02 / 0.78 / 0.30,1 of 9 (3.35)
GFTFDDYHMH,GISWNSGSIGYADSVK,VGRGGGYFDY,ND / ND / ND,2 of 9 (3.75)
GFTFDDYAMH,EISWNSGSIGYADSVK,VGRGGVYFDY,ND / ND / ND,0 of 9
GFNFDDYAMC,GISWNSGSIGYADSVK,VGRGIGYFDY,4.22 / ND / ND,3 of 9 (4.05)
GFTFDDYAMH,GISWNFGSIGYADSVK,VGRAEGYFDY,3.59 / ND / 4.15,4 of 9 (4.46)
GFTFDDYAMH,GISWNSGSIIYADSVK,VGRGGSKFDY,ND / ND / ND,0 of 9
GFTFDDYAMH,SIFWNSGSIGKADSVK,VGRGGGYFDY,3.09 / ND / ND,1 of 9 (3.05)
GATFDDYAMH,GISKNSGSDGYADSVK,VGRGGGYFDY,4.05 / ND / 4.28,2 of 9 (3.92)
GDTFLDYAMH,PISWNSGSIGYADSVK,VGRGGGYFDY,ND / ND / ND,1 of 9 (4.81)
GFTPDDYAMH,GISWNSDSIGYADSVK,VGRNGGYFDY,ND / 6.01 / ND,1 of 9 (4.67)
GFTFDDYAMH,GIIWNSGSIGYADSVK,VGRKGGYFMY,ND / ND / ND,2 of 9 (3.53)
GFTFDDYAMH,GISWNSGRIGYADSVK,VGRGGGYRDY,ND / ND / 3.58,4 of 9 (4.25)
GFTFDDYAMH,GISWNSASIGYADGVK,VGRGGGYGDY,3.88 / ND / ND,0 of 9
GFTIDDYAMH,GISWNSGSIGYADSLS,VGRGGGYFDY,2.46 / 2.50 / 1.61,2 of 9 (4.01)
GFTFDDYAMV,GISWNSGSIGYADSVV,VGKGGGYFDY,ND / ND / ND,1 of 9 (2.37)
GFTFADYAKH,GKSWNSGSIGYADSVK,VGRGGGYFDY,4.85 / 4.91 / ND,2 of 9 (5.18)
GFEWDDYAMH,GISWNSGSIGYADSVK,VGRGGGYFDH,3.13 / 2.89 / 3.10,7 of 9 (5.24)
GFTFDDYAMH,GISWNCFSIGYLDSVK,VGRGGGYFDY,ND / ND / ND,0 of 9

Repeated from above, the 4 best binders with a signal in all replicates:

CDR-H1,CDR-H2,CDR-H3,"log10 Kd, replicates",signal with controls
GFTFDHYAMH,GISWNSNSIGYAESVK,VGRGGGYFDY,1.02 / 0.78 / 0.30,1 of 9 (3.35)
GFTFDEYAMH,GISWNSGSIGYADTVK,VGRGGGYFDQ,1.09 / 1.19 / 0.94,3 of 9 (4.53)
GFTFDDYAMH,GISWNSGSIGYADSVK,VGRGGGYALY,1.94 / 1.96 / 1.84,4 of 9 (5.22)
GFTIDDYAMH,GISWNSGSIGYADSLS,VGRGGGYFDY,2.46 / 2.50 / 1.61,2 of 9 (4.01)

For reference, the parent read 1.86 as the reference entry and 0.88 as a member of this library.

Source: Engelhart et al. 2022 (doi:10.1038/s41597-022-01779-4), MIT Lincoln Laboratory and A-Alpha Bio; data file from the FLAb repository.